# scFv variants of Ab-14 (heavy chain) against a SARS-CoV-2 spike peptide

Binding partner: SARS-CoV-2 spike HR2 peptide, sequence PDVDLGDISGINAS.

Each scFv is VH, a (GGGGS)3 linker, VL, as in the parent Ab-14, and differs from it in the CDRs of the heavy chain only.
VH: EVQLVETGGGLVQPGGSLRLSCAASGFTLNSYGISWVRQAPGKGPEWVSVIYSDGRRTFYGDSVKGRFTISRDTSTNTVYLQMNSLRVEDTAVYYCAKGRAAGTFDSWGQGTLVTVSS
VL: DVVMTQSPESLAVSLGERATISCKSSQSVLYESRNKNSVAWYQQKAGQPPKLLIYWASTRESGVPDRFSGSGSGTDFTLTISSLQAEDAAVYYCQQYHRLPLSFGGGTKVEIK

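The starting antibody came from a phage panning campaign against this peptide. The variants were designed computationally from a first round of random CDR variants and then made and measured. Their group label is 14H_GP_Gen (GP: Gaussian process model; Gen: genetic algorithm; a sequence that several methods proposed may carry one label only). AlphaSeq pools MATa yeast showing the antibodies with MATalpha yeast showing the peptide. Binding brings cells together so that they mate, and sequencing counts the barcode pairs among the diploids. Read counts were normalised to the haploid input and turned into Kd by a linear fit to BCL2-family pairs of known affinity, for each replicate. Each pool was mated in six replicate cultures.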

The parent's heavy chain CDRs are GFTLNSYGIS, VIYSDGRRTFYGDSVK, GRAAGTFDS; each variant's own CDRs replace them letter for letter.
Affinities are written as log10 Kd with Kd in nM; a lower number is a better binder.
"ND" marks a missing value. The strain was present, yet no cells mated with the target were sequenced in that replicate, which points to weak or no binding.

CDR-H1 | CDR-H2 | CDR-H3 | log10 Kd (nM) by replicate | control signals
GFTLNEYGIS | VIYSDGMRTFYGDSVK | GRTAGTFDK | 0.66 0.23 1.31 -0.07 0.38 -0.31 | 0 of 18
GFKLNSYGIS | VIYSDGRRTFYGDSVK | GQEAGTFDS | 1.77 ND ND ND 0.93 ND | 0 of 18
GFGLNEYGIS | VIYSDGRRTFYQDSVK | GRAAGTFDS | ND ND ND ND ND ND | 0 of 18
GFELNDYGIS | VIYSDGRRTFYGDSVK | GRTAGTFDA | 0.60 0.44 0.43 0.89 0.53 0.29 | 0 of 18
GFDLNSYGIS | VIYSDGRRTFYGDSVK | GCQAGTFDS | -0.26 1.44 0.62 0.97 1.08 0.59 | 0 of 18
GFSLNSYGIS | VIYSDGRRTAYGDSVK | GRAAGTFDT | 0.30 0.01 -0.26 -0.06 0.00 -0.04 | 0 of 18
GFDLNSYGIS | VIYADGRRTFYGDSVK | GNAAGTFDS | 0.59 -0.07 -0.12 -0.33 0.32 0.33 | 0 of 18
MFDLNSYGIS | VIYSDGRRTFYIDSVK | GNAAGTFDS | ND 0.20 ND ND ND ND | 0 of 18
GFSLNSYGIS | VIYSDGRRTFYKDSVK | GWTAGTFDS | 0.78 -0.04 0.96 -0.15 0.09 -0.51 | 0 of 18
HFDLNSYGIS | VIYSDGRRTFYHDSVK | GRTAGTFDS | 0.32 0.46 0.40 0.01 0.04 0.25 | 1 of 18 (2.61)
GFDLNSYGIS | VIYSDGRRTFYQDSVK | GQEAGTFDS | 0.74 0.86 0.14 -0.08 0.95 0.63 | 0 of 18
MFDLNSYGIS | VIYSDGRRTFYGDSVK | GRQAGTFDS | 1.79 2.69 1.39 1.61 2.16 ND | 1 of 18 (1.92)
GFHLNSYGIS | VIYSDGRRTFYIDSVK | GRTAGTFDS | ND 1.72 2.50 ND 1.61 1.93 | 0 of 18
GFQLNSYGIS | VIYSDGRRTFYKDSVK | GEAAGTFDS | ND ND ND 1.44 1.27 2.05 | 0 of 18
GFDLNSYGIS | VIYSDGRRTFYIDMVK | GQAAGTFDS | ND ND ND ND ND ND | 0 of 18
GFQLNEYGIS | VIYSDGRRTFYGDSVK | GRLAGTFDT | 0.64 0.32 -0.08 0.71 0.64 0.66 | 0 of 18
GFELNSYGIS | VIYSDGRRTFYADSVK | GRTAGTFDQ | 0.51 -0.13 -0.44 -0.07 0.46 -0.05 | 0 of 18
GFDLNSYGIS | VIYSDGRRWFYGDSVK | GRTAGTFDS | 2.28 2.29 1.54 1.09 1.97 1.94 | 0 of 18
GFDLNSYGIS | VIYSDGRRTEYGDSVK | GRTAGTFDS | 0.18 0.81 1.28 0.28 0.65 0.02 | 0 of 18
GFQLNSYGIS | VIYSDGRRTFYADSVK | GRQAGTFDT | 0.71 0.50 0.02 0.20 0.42 0.56 | 2 of 18 (3.32)
GFQLNSYGIS | VIYSDGRRTFYVDSVK | GRQAGTFDS | ND ND ND ND ND ND | 0 of 18
GFELNEYGIS | VIYSDGRRTFYSDSVK | GKAAGTFDS | 0.34 0.23 -0.16 0.14 -0.31 -0.17 | 0 of 18
GFSLNSYGIS | VIYSDGRRTFYGDSVK | GKEAGTFDN | 0.74 0.23 0.85 1.19 0.83 0.96 | 0 of 18
GFDLNSYGIS | VIYSDGRRCFYGDSVK | GRTAGTFDS | ND 0.93 1.16 1.41 0.33 0.78 | 3 of 18 (2.63)
GFDLNSYGIS | VIYSDGKRTFYGDSVK | GRTAGTFDA | 1.41 1.95 ND 2.19 ND 2.46 | 0 of 18
GFSLNSYGIS | VIYSDGRRTFYGDSVK | GRLAGTFDT | 0.50 0.49 -0.07 -0.23 0.85 0.95 | 1 of 18 (1.10)
GFQLNEYGIS | VIYSDGRRTFYGDSVK | GRTAGTFWS | ND ND ND ND ND ND | 0 of 18
GFELNSYGIS | VIYADGRRTFYHDSVK | GEAAGTFDS | -0.46 0.09 -0.48 -0.88 -0.90 -0.20 | 0 of 18
GFHLNSYGIS | VIYSDGRRTFYGDQVK | GRTAGTFDS | 1.65 ND ND 0.98 2.72 ND | 0 of 18
GFSLNSYGIS | VIYSDGKRTFYVDSVK | GRQAGTFDS | 1.07 1.35 1.49 0.73 0.95 1.43 | 1 of 18 (2.37)
GFNLNSYGIS | VIYSDGIRTFYGDSVK | GRTAGTFDS | 0.47 0.70 0.62 0.39 0.53 0.80 | 0 of 18
GFSLNSYGIS | VIYSDGRRTMYGDSVK | GRNAGTFDS | 1.50 1.89 1.98 1.71 1.36 1.55 | 2 of 18 (2.67)
GFDLNSYGIS | VIYSDGRRTFYADAVK | GNAAGTFDS | 0.88 1.26 1.50 1.03 0.93 1.54 | 1 of 18 (3.09)
GFELNSYGIS | VIYSDGRRTFYDDSVK | GKTAGTFDS | -1.16 ND -0.53 -1.82 ND ND | 0 of 18
GFKLNSYGIS | VIYSDGRRTFYKDSVK | GRTAGTFDS | 1.77 1.86 1.74 1.69 1.26 1.32 | 0 of 18
GFELNSYGIS | VIYADGRRTFYGDSVK | GQAAGTFDG | ND ND ND ND 0.90 -0.41 | 0 of 18
GFDLNTYGIS | VIYSDGRRTFYGDSVK | GQTAGTFDS | 0.23 0.24 0.16 -0.13 -0.25 0.29 | 1 of 18 (2.46)
GFDLNSYGIS | VIYSDGRRTFYSDRVK | GQAAGTFDS | 1.50 0.62 ND 1.20 2.29 2.19 | 0 of 18
GFNLNSYGIS | VIYSDGKRTFYGDSVK | GRQAGTFDS | 1.08 1.45 0.36 0.53 0.63 1.38 | 0 of 18
KFNLNSYGIS | VIYSDGRRTFYADSVK | GRLAGTFDS | 1.79 1.97 2.15 1.64 1.87 1.63 | 1 of 18 (2.10)
GFELNDYGIS | VIYSDGRRTFYGDSVK | GRQAGTFDT | ND ND ND ND ND ND | 0 of 18
GFGLNEYGIS | VIYSDGRRTFYHDSVK | GRTAGTFDT | -0.89 -0.77 -0.74 -1.26 -0.73 0.49 | 0 of 18
WFSLNEYGIS | VIYSDGRRTFYGDSVK | GRNAGTFDS | ND ND ND ND ND ND | 1 of 18 (1.70)
GFDLNSYGIS | VIYSDGRRTFYGDRVK | GNTAGTFDS | ND ND 1.71 1.76 0.74 1.44 | 0 of 18

Top 6 of the variants detected in all replicates, tightest first:

CDR-H1 | CDR-H2 | CDR-H3 | log10 Kd (nM) by replicate | control signals
GFGLNEYGIS | VIYSDGRRTFYHDSVK | GRTAGTFDT | -0.89 -0.77 -0.74 -1.26 -0.73 0.49 | 0 of 18
GFELNSYGIS | VIYADGRRTFYHDSVK | GEAAGTFDS | -0.46 0.09 -0.48 -0.88 -0.90 -0.20 | 0 of 18
GFSLNSYGIS | VIYSDGRRTAYGDSVK | GRAAGTFDT | 0.30 0.01 -0.26 -0.06 0.00 -0.04 | 0 of 18
GFELNEYGIS | VIYSDGRRTFYSDSVK | GKAAGTFDS | 0.34 0.23 -0.16 0.14 -0.31 -0.17 | 0 of 18
GFELNSYGIS | VIYSDGRRTFYADSVK | GRTAGTFDQ | 0.51 -0.13 -0.44 -0.07 0.46 -0.05 | 0 of 18
GFDLNTYGIS | VIYSDGRRTFYGDSVK | GQTAGTFDS | 0.23 0.24 0.16 -0.13 -0.25 0.29 | 1 of 18 (2.46)

Empty control strains, which show no peptide, gave a signal in 1% of pairings with all heavy chain designs; the median was 2.08 and 95% of these signals were weaker than 0.84. No background was subtracted. Also given: how often the same scFv was detected with the empty control strains, with their mean in brackets.
The authors averaged sequences with at least three values out of six and counted those with two or fewer as poor binders.
Values of this round are not directly comparable with the first-round values of the same sequences.
Of ten entries with the parent sequence, four were seen in most replicates (averages 0.34 to 2.37), three in one and three in none, so single entries are noisy.

Reference: Li et al. 2023, doi:10.1038/s41467-023-39022-2. File: FLAb, binding data.